## Measured affinities in a library of Ab-14 light chain variants

From the AlphaSeq antibody data of Engelhart et al. 2022 (doi:10.1038/s41597-022-01779-4), copy in the FLAb collection.

Binding partner: SARS-CoV-2 spike HR2 peptide, sequence PDVDLGDISGINAS.

The variants keep the heavy chain, the linker and the frameworks of Ab-14 (scFv order VH, three GGGGS repeats, VL).
VH: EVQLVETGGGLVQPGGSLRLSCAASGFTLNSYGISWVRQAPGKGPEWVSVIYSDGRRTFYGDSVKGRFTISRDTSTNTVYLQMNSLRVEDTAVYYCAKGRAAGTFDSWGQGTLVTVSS
VL: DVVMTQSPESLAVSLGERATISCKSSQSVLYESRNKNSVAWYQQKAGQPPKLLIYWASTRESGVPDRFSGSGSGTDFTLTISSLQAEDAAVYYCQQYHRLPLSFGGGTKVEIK

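The parent was found by panning a naive human phage display library on the peptide. The library (AAYL50) carries one to three amino acid substitutions per variant, with no insertions or deletions. Affinity was read by AlphaSeq, a pooled yeast mating assay with surface-displayed partners. Pairs that bind mate more often; barcode pairs of the diploids are counted by sequencing. Each replicate has its own calibration line, from reference interactions of the BCL2 family. There are three technical replicates.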

Substitutions are numbered in sequence along the VL above, starting at 1 (not Kabat). All variants listed here change S62 of the VL, counted from its first residue. Values are apparent Kd, the geometric mean of the replicates that gave a signal; lower means stronger binding. "not detected" means that the variant was in the library but no mating with the target was seen in any replicate; the authors take this as a sign of poor binding, and no number exists. Empty control strains, which show no peptide, gave a signal in 18% of pairings with library AAYL50; the median was 15 µM and 95% of these signals were weaker than 970 nM. No background was subtracted.

changes,Kd,detected
S62P,15 nM,3/3
S33W/A40E/S62L,23 µM,2/3
S62D/H98S,3.9 nM,3/3
V29L/S62Y/H98V,2.2 nM,3/3
K24I/Y31G/S62R,5.0 nM,3/3
A57G/S62K/R99K,6.8 nM,3/3
S38T/S62K,not detected,0/3
A57M/S62V/Q95P,2.5 µM,1/3
S33H/S62W/R99G,280 µM,3/3
S33F/S62Q,84 nM,3/3
E61P/S62R/H98I,1.2 µM,3/3
N37I/A40R/S62G,not detected,0/3
S62W/L100S/L102F,not detected,0/3
S26Q/S62A/Y97S,not detected,0/3
Q27G/R34G/S62H,25 nM,3/3
Q27C/A40W/S62Y,not detected,0/3
A40W/T59R/S62K,6.4 µM,2/3
K24T/Q27H/S62V,15 nM,3/3
E32C/S62G/R99A,not detected,0/3
Y31R/S33F/S62V,260 nM,3/3
L30H/R60N/S62F,3.0 µM,1/3
V29I/W56Y/S62T,2.3 nM,3/3
E32G/T59G/S62A,70 nM,3/3
E61R/S62L/S103T,150 nM,3/3
S58I/S62P/R99P,6.5 µM,1/3
Q27S/S62I,50 nM,3/3
Y31H/R60Q/S62V,310 nM,3/3
W56S/S62D,990 pM,3/3
S62C/Q96F,85 nM,3/3
V29D/A40N/S62M,not detected,0/3
Q27E/L30E/S62M,44 nM,3/3
S26M/W56A/S62F,990 pM,3/3
L30Q/S62K/Q95K,150 µM,1/3
S28P/V39S/S62H,not detected,0/3
S62T/Q95P/Y97H,320 nM,3/3
Q27T/E32F/S62F,23 µM,3/3
Q27G/S62A/L100C,14 nM,3/3
A40H/E61G/S62H,not detected,0/3
S25I/W56S/S62N,360 pM,3/3
S25V/R34S/S62N,89 µM,1/3
S62Y,8.1 nM,3/3
N35L/A57L/S62E,670 nM,3/3
S25L/S62I,660 pM,3/3
K36R/S62T/Q95T,81 nM,3/3
Y31D/R34C/S62W,6.4 nM,3/3
K24F/S25P/S62L,not detected,0/3
Y31M/S62Q/L102A,43 nM,3/3
S38I/S62Y,6.1 µM,1/3
S28C/S62K/P101C,not detected,0/3
S38H/S62M,44 nM,3/3
W56A/S62G/Y97K,81 nM,3/3
K24F/S62L/Q95N,not detected,0/3
Q27D/S33D/S62M,8.3 nM,3/3
S28Q/T59R/S62T,86 nM,3/3
S62M/P101F/L102H,38 µM,1/3